Literature values, collected in article PMC3101248.

Molecular target: VPS35 (Homo sapiens) (UniProt Q96QK1)
Settings: cited from earlier work

## VPS29 (from UniProt Q9UBQ0)
  pKd: 6.60

pKd: −log10 of the molar value.
